From patent US8987233B2, “Bruton's tyrosine kinase activity probe and method of using” (Pharmacyclics, Inc., priority 2006, dated 2015)

The chains behind the UniProt entries cited, without tags or fusion partners. Residues count along the entry.
UniProt P06239, whole entry: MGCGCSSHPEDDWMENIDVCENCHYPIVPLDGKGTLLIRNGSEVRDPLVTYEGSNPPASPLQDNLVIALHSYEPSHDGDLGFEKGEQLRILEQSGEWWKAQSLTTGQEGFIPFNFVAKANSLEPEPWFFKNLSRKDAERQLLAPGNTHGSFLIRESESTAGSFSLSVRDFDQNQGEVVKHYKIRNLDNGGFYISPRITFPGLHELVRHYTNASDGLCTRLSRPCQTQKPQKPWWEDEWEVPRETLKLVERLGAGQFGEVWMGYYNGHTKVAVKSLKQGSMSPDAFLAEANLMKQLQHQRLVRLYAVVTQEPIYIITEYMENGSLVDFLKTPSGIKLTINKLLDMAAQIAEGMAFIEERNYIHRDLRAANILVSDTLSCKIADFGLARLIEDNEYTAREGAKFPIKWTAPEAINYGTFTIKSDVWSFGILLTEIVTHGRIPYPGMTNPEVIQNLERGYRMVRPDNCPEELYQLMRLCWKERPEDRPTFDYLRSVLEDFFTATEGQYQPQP
UniProt Q06187, whole entry: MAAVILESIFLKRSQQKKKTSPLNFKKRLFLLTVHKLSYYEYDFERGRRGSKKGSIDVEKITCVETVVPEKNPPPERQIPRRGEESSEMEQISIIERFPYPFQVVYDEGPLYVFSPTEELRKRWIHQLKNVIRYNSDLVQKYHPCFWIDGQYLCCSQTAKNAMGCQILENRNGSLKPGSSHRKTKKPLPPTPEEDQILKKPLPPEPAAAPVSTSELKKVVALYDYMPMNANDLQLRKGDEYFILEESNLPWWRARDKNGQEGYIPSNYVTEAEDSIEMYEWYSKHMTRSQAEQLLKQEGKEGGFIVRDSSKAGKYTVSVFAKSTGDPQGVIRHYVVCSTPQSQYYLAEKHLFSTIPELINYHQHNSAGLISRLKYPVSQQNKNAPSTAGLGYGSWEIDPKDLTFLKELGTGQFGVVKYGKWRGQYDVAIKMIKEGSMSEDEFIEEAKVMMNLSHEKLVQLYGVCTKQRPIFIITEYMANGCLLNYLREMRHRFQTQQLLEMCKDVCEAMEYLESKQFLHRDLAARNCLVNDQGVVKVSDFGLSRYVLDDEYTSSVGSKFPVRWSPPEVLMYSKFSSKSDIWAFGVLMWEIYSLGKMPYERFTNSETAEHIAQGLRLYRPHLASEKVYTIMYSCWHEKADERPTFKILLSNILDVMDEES
UniProt P00519, whole entry: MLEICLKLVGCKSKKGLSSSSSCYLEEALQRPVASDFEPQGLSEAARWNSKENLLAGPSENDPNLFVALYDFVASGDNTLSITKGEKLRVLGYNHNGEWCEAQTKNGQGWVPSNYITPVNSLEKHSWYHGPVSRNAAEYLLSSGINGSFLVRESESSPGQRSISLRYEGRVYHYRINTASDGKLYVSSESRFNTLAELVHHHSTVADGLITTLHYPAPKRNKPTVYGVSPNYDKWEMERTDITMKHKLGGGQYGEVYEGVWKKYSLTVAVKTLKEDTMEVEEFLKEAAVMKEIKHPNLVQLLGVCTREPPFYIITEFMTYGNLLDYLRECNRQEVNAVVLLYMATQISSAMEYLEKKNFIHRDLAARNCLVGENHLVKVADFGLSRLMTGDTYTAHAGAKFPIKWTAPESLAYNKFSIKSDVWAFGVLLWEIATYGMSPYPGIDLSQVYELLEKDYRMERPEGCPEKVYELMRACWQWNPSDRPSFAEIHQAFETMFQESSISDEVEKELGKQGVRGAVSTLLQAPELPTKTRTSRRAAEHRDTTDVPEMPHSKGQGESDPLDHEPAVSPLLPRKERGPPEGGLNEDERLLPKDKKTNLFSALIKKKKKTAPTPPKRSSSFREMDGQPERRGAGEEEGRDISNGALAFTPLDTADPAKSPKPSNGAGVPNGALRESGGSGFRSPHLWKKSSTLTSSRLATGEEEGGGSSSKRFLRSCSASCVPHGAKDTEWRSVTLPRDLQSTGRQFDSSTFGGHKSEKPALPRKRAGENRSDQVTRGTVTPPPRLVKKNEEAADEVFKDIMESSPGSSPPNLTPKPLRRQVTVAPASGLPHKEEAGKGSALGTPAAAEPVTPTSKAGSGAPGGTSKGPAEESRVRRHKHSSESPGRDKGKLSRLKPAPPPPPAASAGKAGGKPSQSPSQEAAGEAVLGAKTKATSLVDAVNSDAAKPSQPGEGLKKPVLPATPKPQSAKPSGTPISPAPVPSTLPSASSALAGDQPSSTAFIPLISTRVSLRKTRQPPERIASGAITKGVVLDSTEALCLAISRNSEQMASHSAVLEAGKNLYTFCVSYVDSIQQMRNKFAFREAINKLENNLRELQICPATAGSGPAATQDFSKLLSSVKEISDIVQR
UniProt P08581, 25-1390 limits assumed: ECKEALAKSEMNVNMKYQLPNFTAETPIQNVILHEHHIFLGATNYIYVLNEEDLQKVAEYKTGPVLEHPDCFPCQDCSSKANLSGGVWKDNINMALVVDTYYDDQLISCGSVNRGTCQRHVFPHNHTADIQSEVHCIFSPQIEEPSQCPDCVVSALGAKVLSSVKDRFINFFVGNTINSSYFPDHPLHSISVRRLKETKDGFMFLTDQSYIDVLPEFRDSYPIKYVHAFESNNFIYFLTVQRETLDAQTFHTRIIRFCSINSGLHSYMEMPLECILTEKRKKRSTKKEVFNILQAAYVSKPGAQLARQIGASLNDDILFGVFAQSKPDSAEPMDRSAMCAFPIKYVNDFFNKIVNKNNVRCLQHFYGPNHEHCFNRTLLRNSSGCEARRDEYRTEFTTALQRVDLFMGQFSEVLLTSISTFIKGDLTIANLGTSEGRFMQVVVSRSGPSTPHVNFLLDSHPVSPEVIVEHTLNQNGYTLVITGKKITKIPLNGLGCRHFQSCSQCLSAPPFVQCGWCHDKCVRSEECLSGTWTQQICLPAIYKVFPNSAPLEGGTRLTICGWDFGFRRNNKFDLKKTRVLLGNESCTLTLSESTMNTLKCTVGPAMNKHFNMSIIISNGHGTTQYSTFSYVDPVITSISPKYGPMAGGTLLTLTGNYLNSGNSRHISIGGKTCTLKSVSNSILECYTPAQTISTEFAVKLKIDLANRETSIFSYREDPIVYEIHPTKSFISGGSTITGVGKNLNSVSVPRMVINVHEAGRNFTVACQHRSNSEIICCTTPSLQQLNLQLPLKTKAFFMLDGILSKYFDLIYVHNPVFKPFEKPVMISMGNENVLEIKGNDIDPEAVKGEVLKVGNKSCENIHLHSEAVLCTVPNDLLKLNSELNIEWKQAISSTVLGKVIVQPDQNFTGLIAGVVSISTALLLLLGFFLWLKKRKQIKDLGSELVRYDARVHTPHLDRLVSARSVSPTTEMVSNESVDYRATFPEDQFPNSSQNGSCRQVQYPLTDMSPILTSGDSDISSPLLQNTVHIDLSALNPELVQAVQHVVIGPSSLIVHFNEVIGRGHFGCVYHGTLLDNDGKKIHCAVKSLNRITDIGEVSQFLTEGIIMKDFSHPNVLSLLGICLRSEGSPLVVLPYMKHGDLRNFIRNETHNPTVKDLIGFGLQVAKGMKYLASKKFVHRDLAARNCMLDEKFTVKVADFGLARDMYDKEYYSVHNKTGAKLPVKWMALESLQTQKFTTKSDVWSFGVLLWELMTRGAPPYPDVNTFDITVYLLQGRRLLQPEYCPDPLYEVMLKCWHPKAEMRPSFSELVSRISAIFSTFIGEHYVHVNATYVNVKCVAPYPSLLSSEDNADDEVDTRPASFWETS
UniProt P35991, whole entry: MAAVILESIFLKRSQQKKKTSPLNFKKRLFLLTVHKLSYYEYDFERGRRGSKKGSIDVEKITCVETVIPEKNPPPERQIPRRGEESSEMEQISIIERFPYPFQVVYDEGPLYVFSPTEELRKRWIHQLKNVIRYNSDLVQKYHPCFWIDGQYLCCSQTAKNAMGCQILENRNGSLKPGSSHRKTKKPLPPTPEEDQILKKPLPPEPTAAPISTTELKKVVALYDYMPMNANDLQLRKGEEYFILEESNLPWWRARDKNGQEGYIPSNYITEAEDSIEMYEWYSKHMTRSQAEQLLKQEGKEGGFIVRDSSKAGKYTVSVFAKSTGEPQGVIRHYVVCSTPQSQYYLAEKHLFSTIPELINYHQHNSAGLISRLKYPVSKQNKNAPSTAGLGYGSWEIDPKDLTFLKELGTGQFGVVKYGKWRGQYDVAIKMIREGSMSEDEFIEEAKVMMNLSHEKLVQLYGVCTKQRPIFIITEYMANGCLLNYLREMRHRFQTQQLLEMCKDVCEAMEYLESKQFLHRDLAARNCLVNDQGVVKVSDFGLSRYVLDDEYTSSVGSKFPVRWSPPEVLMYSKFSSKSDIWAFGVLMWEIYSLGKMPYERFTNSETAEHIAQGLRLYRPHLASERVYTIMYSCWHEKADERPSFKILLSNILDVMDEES

Tests used:
Lck = Lck (Homo sapiens, UniProt P06239); test: TR-FRET kinase assay, Lck; assay type: biochemical; conditions: read-out: IC50 Lck; ATP at Km
Btk = Btk (Homo sapiens, UniProt Q06187); test: TR-FRET kinase assay, Btk; assay type: biochemical; conditions: read-out: IC50 Btk; ATP at Km
Method: (§1) Kinase activity for Btk, Abl, c-met, ITK, LCK, and EGFR was determined using a time-resolved fluorescence resonance energy transfer (TR-FRET) methodology. Measurements were performed in a reaction volume of 50 μl using 96-well assay plates. […] The reaction was quenched by the addition of 1.2 equivalents of EDTA (relative to divalent cation) in 25 μL of 1× Lance buffer (Perkin-Elmer). Streptavidin-APC (Perkin-Elmer) and Eu-labeled p-Tyr100 antibody (Perkin-Elmer) in 1× Lance buffer were added in a 25 μL volume to give final concentrations of 100 nM and 2.5 nM, respectively, and the mixture was allowed to incubate for one hour. The TR-FRET signal was measured on a multimode plate reader with an excitation wavelength of 330 nm and detection wavelengths of 615 and 665 nm. Activity was determined by the ratio of the fluorescence at 665 nm to that at 615 nm. For each compound, enzyme activity was measured at various concentrations of compound. Negative control reactions were performed in the absence of inhibitor in replicates of six, and two no-enzyme controls were used to determine baseline fluorescence levels. Inhibition constants {Ki(app)} were obtained using the program BatchKi (23). […]; for all kinases, [ATP]=KmATP, [Btk]total=0.5 nM and [Lck]total=6 nM.

Abl = Abl (Homo sapiens, UniProt P00519); test: TR-FRET kinase assay, Abl; assay type: biochemical; conditions: read-out: IC50 Abl; ATP at Km
c-met = c-met (Homo sapiens, UniProt P08581); test: TR-FRET kinase assay, c-met; assay type: biochemical; conditions: read-out: IC50 c-met; ATP at Km
Method: as §1

mouse Btk = mouse Btk (Mus musculus, UniProt P35991); test: Competition for probe labeling in isolated mouse splenocytes; assay type: cell-based; conditions: splenocytes pre-incubated with inhibitor, then 1 μM Compound 3
[1] = test system: intracellular calcium mobilization in Ramos cells following B cell receptor activation; test: Calcium flux assay in Ramos B-cells stimulated with anti-human IgM; conditions: read-out: IC50 Ca2+ flux (calcium mobilization), anti-IgM stimulation

IC50 (Lck): 10 nM
IC50 (Btk): 31 nM
IC50 (Abl): 810 nM
IC50 (c-met): 82000 nM
Competition for labeling of the 70 kD band (mouse Btk) (mouse Btk): effectively competed away
IC50 [1]: 620 nM
Structure (SMILES): Nc1ncnc2c1c(-c1ccc(Oc3ccccc3)cc1)nn2C1CCOCC1
